Results reported in US20040127511A1 (Pharmacia Corporation, priority 2002, published 2004).
pIC50: −log10 of the molar value.

Sequences of proteins named here, by UniProt entry; tags and fusion partners are left off.
UniProt P49137, whole entry, species assumed: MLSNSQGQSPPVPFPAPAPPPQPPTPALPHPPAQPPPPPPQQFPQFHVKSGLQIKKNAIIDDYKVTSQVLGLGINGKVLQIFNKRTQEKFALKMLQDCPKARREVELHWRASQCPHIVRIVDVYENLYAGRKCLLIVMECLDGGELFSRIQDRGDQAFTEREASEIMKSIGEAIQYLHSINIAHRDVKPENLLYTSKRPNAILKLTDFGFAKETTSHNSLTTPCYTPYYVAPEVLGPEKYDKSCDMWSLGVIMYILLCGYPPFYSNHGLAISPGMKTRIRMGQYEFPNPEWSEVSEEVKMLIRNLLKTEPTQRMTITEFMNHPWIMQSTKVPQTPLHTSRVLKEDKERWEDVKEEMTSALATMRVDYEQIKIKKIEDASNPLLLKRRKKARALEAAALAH

Target: MAPKAPK2 (Homo sapiens, UniProt P49137)
Assay type: biochemical
Conditions: HSP-peptide substrate, 0.03 mM ATP, 2% DMSO; read-out: MK-2 Avg. IC50

## N#Cc1c(N)nc2c(c1N)Cc1ccccc1S2 [No. 83, 2-amino-4-(butylamino)-7,8-dimethoxy-5H-chromeno[2,3-b]pyridine-3-carbonitrile]
  pIC50: ≤ 3.70
